# scFv variants of Ab-95 (light chain) against a SARS-CoV-2 spike peptide

Binding partner: SARS-CoV-2 spike HR2 peptide, sequence PDVDLGDISGINAS.

Parent scFv Ab-95: VH joined to VL by a 15-residue (Gly4Ser)3 linker. Changes lie in the light chain CDRs alone.
VH: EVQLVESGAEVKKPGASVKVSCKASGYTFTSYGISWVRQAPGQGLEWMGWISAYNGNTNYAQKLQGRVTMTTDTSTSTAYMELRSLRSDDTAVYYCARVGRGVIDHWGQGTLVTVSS
VL: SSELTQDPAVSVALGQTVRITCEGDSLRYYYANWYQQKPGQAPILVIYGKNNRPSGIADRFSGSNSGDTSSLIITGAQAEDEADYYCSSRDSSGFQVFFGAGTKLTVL

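AAYL52 was designed without a model: most single CDR substitutions and a random sample of double and triple ones. In AlphaSeq, yeast of one mating type display the scFv and yeast of the other type display the target. After mating in shaken culture at 30 °C for 16 h, diploids were selected and their barcode pairs sequenced. Scores were corrected for input abundance and mapped to Kd with protein pairs of known affinity run in the same pool. The assay was run in three technical replicates.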

Substitutions are numbered in sequence along the VL above, starting at 1 (not Kabat).
Numbers give log10(Kd / nM), so 0 is 1 nM and 3 is 1 µM. Smaller is tighter.
"n.d." marks a missing value. The strain was present, yet no cells mated with the target were sequenced in that replicate, which points to weak or no binding.
Parent in this assay: reference entry 2.31, copy in this library 2.25.
Three control strains display no target. For library AAYL52, 28% of the pairings with them gave a signal, with a median of 3.91 and one signal in twenty below 2.90, so weak values seen in few replicates may be background. Also given: how often the same scFv was detected with the empty control strains, with their mean in brackets.

| changes | log10 Kd, replicates | control signals |
|---|---|---|
| Y29C+P54A+S55T | 3.64 n.d. 4.54 | 6 of 9 (4.23) |
| N52L+S55D+S92W | 2.18 2.31 1.92 | 1 of 9 (4.34) |
| Y29M+Y31T+S92T | 2.69 2.45 2.00 | 3 of 9 (4.29) |
| E23K+Y29I+P54G | 2.72 3.32 3.24 | 6 of 9 (3.79) |
| G24E+S93Q+Q96K | n.d. n.d. n.d. | 4 of 9 (4.18) |
| S26R+K50E+S88T | 2.43 2.27 1.48 | 1 of 9 (3.26) |
| E23T+S26L+G49H | 3.89 5.63 3.35 | 5 of 9 (4.30) |
| G49N+V97M | 2.77 3.11 2.37 | 3 of 9 (3.66) |
| G24L+R28H | 3.64 4.02 4.42 | 3 of 9 (4.53) |
| K50S+N52A+D91P | 4.12 4.44 3.91 | 7 of 9 (4.76) |
| D91Q+V97C | 3.72 n.d. n.d. | 1 of 9 (4.45) |
| G24C+N51M+V97D | n.d. n.d. n.d. | 2 of 9 (3.58) |
| Y29A+Y31H+N33K | 3.29 3.58 n.d. | 4 of 9 (3.52) |
| L27D+N52K+S88T | n.d. n.d. 3.95 | 0 of 9 |
| G94I+V97P+F98P | n.d. n.d. n.d. | 2 of 9 (2.94) |
| R28E+Y29F+Y30E | 1.33 1.29 0.86 | 3 of 9 (4.97) |
| Y31G+S89N+V97C | 3.91 n.d. n.d. | 1 of 9 (3.55) |
| E23Q+R28N+A32N | 1.34 1.15 0.79 | 1 of 9 (3.24) |
| N51F+N52A+S55K | 4.01 5.28 4.28 | 4 of 9 (4.87) |
| G49S+K50E+R53L | 3.66 3.10 n.d. | 4 of 9 (4.04) |
| E23N+N33A+S92R | 3.64 n.d. 4.25 | 1 of 9 (3.67) |
| S26D+G49L+N52D | n.d. 3.89 n.d. | 1 of 9 (3.22) |
| Y31K+G49C+V97S | n.d. n.d. n.d. | 0 of 9 |
| N51F+R90V+F95H | n.d. n.d. n.d. | 1 of 9 (5.09) |
| Y31P+G49C+F98T | 4.01 n.d. n.d. | 0 of 9 |
| A32M+N52Q+F98N | n.d. 4.83 n.d. | 0 of 9 |
| D25G+R90F+Q96A | n.d. 2.81 2.92 | 1 of 9 (4.73) |
| K50M+S93Y | 3.04 3.59 2.32 | 6 of 9 (3.96) |
| R53E+R90V | 4.14 4.24 4.40 | 2 of 9 (4.43) |
| Y31L+N33A+R53F | n.d. n.d. n.d. | 4 of 9 (3.87) |
| L27E+G94I+V97A | n.d. 3.20 n.d. | 1 of 9 (4.81) |
| Y31C+R90H+D91V | 1.81 1.68 1.28 | 3 of 9 (4.13) |
| R90W+S93V+F95V | n.d. 3.43 n.d. | 4 of 9 (3.78) |
| S88D+F98M | 1.84 2.15 1.54 | 5 of 9 (3.51) |
| Y31N+N52L+F95G | 2.04 1.81 1.61 | 5 of 9 (3.87) |
| G24I+R28S+N52K | 1.44 1.22 0.73 | 6 of 9 (4.25) |
| D25A+N33T+D91Y | 4.11 n.d. n.d. | 2 of 9 (3.81) |
| P54C+S88E+S89Q | 5.26 n.d. n.d. | 3 of 9 (4.08) |
| S26Q+L27E+Y31M | n.d. n.d. n.d. | 3 of 9 (4.41) |
| G24A+Y29I+F95D | n.d. 3.28 3.84 | 3 of 9 (4.39) |
| D25A+S26T | 3.33 3.05 3.25 | 2 of 9 (3.24) |
| Y30T+Y31V+S88G | 2.95 2.70 2.76 | 5 of 9 (3.99) |
| E23I+G94D+F98K | 4.69 n.d. 4.13 | 1 of 9 (3.83) |
| E23Y+L27R+S92K | 2.76 2.45 1.94 | 1 of 9 (2.62) |
| P54V+S88E+G94T | 3.06 2.77 n.d. | 1 of 9 (4.83) |
| N52D+S88C+D91Q | 2.94 2.64 2.10 | 3 of 9 (4.19) |
| S88N+R90P+D91H | 5.29 n.d. n.d. | 2 of 9 (2.83) |
| K50G+P54G+S93K | 4.64 2.56 1.89 | 1 of 9 (2.79) |
| Y31S+G94F | 4.21 4.57 n.d. | 3 of 9 (4.03) |

Source: Engelhart et al. 2022 (doi:10.1038/s41597-022-01779-4), MIT Lincoln Laboratory and A-Alpha Bio; data file from the FLAb repository.